Literature values as cited in publication PMC4532868, “Beneficial Effects of the mTOR Inhibitor Everolimus in Patients with Advanced Medullary Thyroid Carcinoma: Subgroup Results of a Phase II Trial” (International Journal of Endocrinology, 2015).

System: EGFR P848L
Parameters: method as in PMID 17877814, PMID 22848293
Details: nonsmall cell lung carcinoma; cited from earlier work

COc1cc2ncnc(Nc3ccc(F)c(Cl)c3)c2cc1OCCCN1CCOCC1 [gefitinib]
Sensitivity of EGFR P848L mutation to treatment: insensitive
